In patent publication US20170239363A1 one finds EC50 (nM), intracellular cAMP response in BHK cells expressing rat GLP-1R data, which are given here for one substance.

Chains of the proteins cited; added tags and fusions are not shown. Residues count along the entry.
UniProt P32301, 22-463: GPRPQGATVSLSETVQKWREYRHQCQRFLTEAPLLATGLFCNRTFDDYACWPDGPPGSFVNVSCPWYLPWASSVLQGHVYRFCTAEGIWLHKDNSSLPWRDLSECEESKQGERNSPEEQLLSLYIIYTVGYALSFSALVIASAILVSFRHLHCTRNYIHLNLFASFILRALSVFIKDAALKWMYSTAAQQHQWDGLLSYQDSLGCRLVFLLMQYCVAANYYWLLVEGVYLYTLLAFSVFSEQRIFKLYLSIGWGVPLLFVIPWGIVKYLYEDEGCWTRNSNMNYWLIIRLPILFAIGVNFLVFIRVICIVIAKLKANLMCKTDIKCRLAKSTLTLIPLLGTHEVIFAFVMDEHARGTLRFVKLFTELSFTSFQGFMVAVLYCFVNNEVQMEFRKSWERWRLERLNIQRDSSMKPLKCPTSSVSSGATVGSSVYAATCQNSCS

The target of this test is rat glucagon-like peptide-1 receptor (GLP-1R) on stably transfected BHK cells (rat) (UniProt P32301). The test is described as follows: cell-based or functional assay.

The substance “66.2 kDa EG9 exendin-C-POEGMA conjugate (DPP4-treated, as in the cAMP assay) (from UniProt P26349) (peptide)” yielded an EC50 (nM), intracellular cAMP response in BHK cells expressing rat GLP-1R of 2.1 nM.
